scFv variants of Ab-95 (light chain) against a SARS-CoV-2 spike peptide

Binding partner: SARS-CoV-2 spike HR2 peptide, sequence PDVDLGDISGINAS.

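The parent was found by panning a naive human phage display library on the peptide. Library AAYL52 holds single substitutions and randomly drawn double and triple substitutions in the CDRs. The assay is AlphaSeq: two haploid yeast populations carry antibody and antigen on their surface. Pairs that bind mate more often; barcode pairs of the diploids are counted by sequencing. Scores were corrected for input abundance and mapped to Kd with protein pairs of known affinity run in the same pool. Mating was done three times.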

Ab-95 is the parent antibody, in scFv form: VH, then a (GGGGS)3 linker, then VL. The heavy chain is unchanged in all variants.
VH: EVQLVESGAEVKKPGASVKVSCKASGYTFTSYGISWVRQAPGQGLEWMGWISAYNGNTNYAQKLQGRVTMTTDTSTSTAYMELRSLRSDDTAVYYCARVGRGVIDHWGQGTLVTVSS
VL: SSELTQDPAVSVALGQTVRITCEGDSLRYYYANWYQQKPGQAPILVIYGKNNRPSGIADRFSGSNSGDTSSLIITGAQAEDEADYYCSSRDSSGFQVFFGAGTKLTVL

Substitutions are numbered in sequence along the VL above, starting at 1 (not Kabat). Affinities are written as log10 Kd with Kd in nM; a lower number is a better binder. Replicates are averaged; those with no signal do not enter the mean. "nd" means that the variant was in the library but no mating with the target was seen in that replicate; the authors take this as a sign of poor binding, and no number exists. Empty control strains, which show no peptide, gave a signal in 28% of pairings with library AAYL52; the median was 3.91 and 95% of these signals were weaker than 2.90. No background was subtracted. Also given: how often the same scFv was detected with the empty control strains.

Variant E23W+K50C+S88I showed 3.43, 3.84, 2.23 (mean 3.17; controls 3 of 9).
Variant E23L+R53M+S89R showed 4.64, 3.16, 4.23 (mean 4.01; controls 3 of 9).
Variant G24C+R53T+V97R showed 3.12, 3.16, nd (mean 3.14; controls 1 of 9).
Variant L27S+P54G+V97I showed nd, nd, nd (controls 1 of 9).
Variant L27Q+R53Y showed nd, nd, nd (controls 1 of 9).
Variant R53A+S93R+Q96A showed 4.33, 4.06, nd (mean 4.20; controls 1 of 9).
Variant Y29F+R90T+G94A showed 2.88, 3.31, 2.89 (mean 3.03; controls 3 of 9).
Variant Y30Q+N33V+S89V showed 2.69, 2.57, 2.18 (mean 2.48; controls 4 of 9).
Variant E23T+R28D+Y31R showed 2.26, 2.36, 1.74 (mean 2.12; controls 4 of 9).
Variant G24Q+A32M+R90K showed nd, 3.46, nd (controls 3 of 9).
Variant A32Y+G49R+K50Q showed 4.49, 4.18, 4.58 (mean 4.42; controls 3 of 9).
Variant A32S+S93V+V97R showed 2.40, 2.99, 2.30 (mean 2.56; controls 1 of 9).
Variant G24Y+N33V+N51Q showed nd, 5.17, nd (controls 0 of 9).
Variant S26K+L27M+S89D showed 4.37, 4.43, 3.99 (mean 4.26; controls 2 of 9).
Variant S26M+A32F+S55N showed 3.59, nd, nd (controls 1 of 9).
Variant E23M+G94Q+Q96C showed 2.88, 3.19, 3.13 (mean 3.07; controls 7 of 9).
Variant Y29L+N33Q+K50Q showed 5.75, nd, nd (controls 1 of 9).
Variant D25P+S26G+V97S showed 3.39, 3.29, 3.07 (mean 3.25; controls 5 of 9).
Variant N52H+S89K+G94C showed nd, nd, nd (controls 2 of 9).
Variant R28I+P54Q showed 3.45, nd, 3.95 (mean 3.70; controls 3 of 9).
Variant G24T+N51Y+F95Y showed 4.01, nd, 4.16 (mean 4.09; controls 2 of 9).
Variant S89A+S92D+Q96N showed 1.35, 1.78, 1.94 (mean 1.69; controls 0 of 9).
Variant D25M+Y31W+F98Y showed 3.58, 4.02, 4.26 (mean 3.96; controls 2 of 9).
Variant Y30I+Y31V+S93W showed 3.09, nd, 4.22 (mean 3.66; controls 4 of 9).
Variant E23Y+S88C+R90A showed 3.15, 2.58, 2.52 (mean 2.75; controls 2 of 9).
Variant N33V+G49I+V97H showed 4.18, 3.86, nd (mean 4.02; controls 3 of 9).
Variant R28T+Y29P showed 2.95, 2.65, 2.32 (mean 2.64; controls 4 of 9).
Variant Y29E+D91E+F98T showed 3.31, 3.94, nd (mean 3.62; controls 3 of 9).
Variant D25Y+R28T+S92W showed nd, nd, nd (controls 0 of 9).
Variant L27Y+N52S showed 3.50, nd, nd (controls 2 of 9).
Variant S26V+Y29F+Y31V showed 4.04, 3.45, 2.82 (mean 3.43; controls 4 of 9).
Variant R28D+P54C+G94F showed nd, nd, nd (controls 1 of 9).
Variant Y31H+Q96H+F98V showed 3.54, 3.23, nd (mean 3.39; controls 2 of 9).
Variant D25S+R28I+R53H showed 2.70, nd, 3.95 (mean 3.32; controls 1 of 9).
Variant Y31K+S88R+F98S showed 4.83, 4.31, 2.58 (mean 3.91; controls 3 of 9).
Variant L27A+N51V+F98V showed 3.91, 4.60, nd (mean 4.25; controls 3 of 9).
Variant A32N+G49H+R90N showed 3.37, nd, nd (controls 2 of 9).
Variant D25I+L27K+R28P showed 2.60, 2.61, 2.03 (mean 2.41; controls 4 of 9).
Variant S26M+N52I showed 2.81, 2.72, 3.11 (mean 2.88; controls 3 of 9).
Variant E23R+R53W showed 3.88, 3.38, nd (mean 3.63; controls 2 of 9).

Data: MIT Lincoln Laboratory AlphaSeq set, Engelhart et al. 2022, doi:10.1038/s41597-022-01779-4, as distributed in FLAb.